The chains behind the UniProt entries cited, without tags or fusion partners. Residues count along the entry.
UniProt P25774, 115-331: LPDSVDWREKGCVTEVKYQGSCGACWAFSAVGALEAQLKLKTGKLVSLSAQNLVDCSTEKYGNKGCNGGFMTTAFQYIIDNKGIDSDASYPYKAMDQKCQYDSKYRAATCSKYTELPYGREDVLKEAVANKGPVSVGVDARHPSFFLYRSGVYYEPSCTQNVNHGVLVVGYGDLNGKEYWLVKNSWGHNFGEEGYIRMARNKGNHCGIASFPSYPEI

In US20090099157A1, “TETRAHYDRO-PYRAZOLO-PYRIDINE THIOETHER MODULATORS OF CATHEPSIN S” (priority 2007, published 2009):

Molecular target: Recombinant human cathepsin S (CatS) (Homo sapiens, UniProt P25774)
Experiment: biochemical

| SMILES | IC50 [nM] |
| --- | --- |
| NC(=O)C(=O)N1CCc2c(c(-c3ccc(C(F)(F)F)c(SCCN4CCC(F)CC4)c3)nn2C[C@@H](O)CN2CCCCC2)C1 [Example 250, 2-{3-[3-{[2-(4-Fluoropiperidin-1-yl)ethyl]sulfanyl}-4-(trifluoromethyl)phenyl]-1-[(2S)-2-hydroxy-3-piperidin-1-ylpropyl]-1,4,6,7-tetrahydro-5H-pyrazolo[4,3-c]pyridin-5-yl}-2-oxoacetamide] | 50 |
| CS(=O)(=O)N1CCc2c(c(-c3ccc(C(F)(F)F)c(SCCN4CCC5CCCCC5C4)c3)nn2CCCN2CCC(N3CCCC3=O)CC2)C1 (stereo not shown) [Example 6, 1-{1-[3-(5-Methanesulfonyl-3-{3-[2-(octahydro-isoquinolin-2-yl)-ethylsulfanyl]-4-trifluoromethyl-phenyl}-4,5,6,7-tetrahydro-pyrazolo[4,3-c]pyridin-1-yl)-propyl]-piperidin-4-yl}-pyrrolidin-2-one] | 60 |
| CS(=O)(=O)N1CCc2c(c(-c3ccc(C(F)(F)F)c(SCC(=O)N4CCOCC4)c3)nn2CCCN2CCOCC2)C1 [Example 254, 5-(Methylsulfonyl)-3-{3-[(2-morpholin-4-yl-2-oxoethyl)sulfanyl]-4-(trifluoromethyl)phenyl}-1-(3-morpholin-4-ylpropyl)-4,5,6,7-tetrahydro-1H-pyrazolo[4,3-c]pyridine] | 990 |
| CS(=O)(=O)N1CCc2c(c(-c3ccc(C(F)(F)F)c(SCCN4CCCCC4)c3)nn2CC(O)CN2CCN(C3CC3)CC2)C1 (stereo not shown) [Example 159, 1-(4-Cyclopropylpiperazin-1-yl)-3-[5-(methylsulfonyl)-3-{3-[(2-piperidin-1-ylethyl)sulfanyl]-4-(trifluoromethyl)phenyl}-4,5,6,7-tetrahydro-1H-pyrazolo[4,3-c]pyridin-1-yl]propan-2-ol] | 290 |
| CS(=O)(=O)N1CCc2c(c(-c3ccc(C(F)(F)F)c(SCCN4CCCC(O)C4)c3)nn2CC(O)CN2CCC(O)(c3ccccn3)CC2)C1 (stereo not shown) [Example 192, 1-(2-{[5-{1-[2-Hydroxy-3-(4-hydroxy-4-pyridin-2-ylpiperidin-1-yl)propyl]-5-(methylsulfonyl)-4,5,6,7-tetrahydro-1H-pyrazolo[4,3-c]pyridin-3-yl}-2-(trifluoromethyl)phenyl]sulfanyl}ethyl)piperidin-3-ol] | 80 |
| COc1ccccc1C1CCN(CC(O)Cn2nc(-c3ccc(C(F)(F)F)c(SCC(=O)N4CCCC4)c3)c3c2CCNC3)CC1 (stereo not shown) [Example 443, 1-{4-[2-(Methyloxy)phenyl]piperidin-1-yl}-3-(3-{3-[(2-oxo-2-pyrrolidin-1-ylethyl)sulfanyl]-4-(trifluoromethyl)phenyl}-4,5,6,7-tetrahydro-1H-pyrazolo[4,3-c]pyridin-1-yl)propan-2-ol] | 60 |
| OC(CN1CCCC1)Cn1nc(-c2ccc(C(F)(F)F)c(SCCN3CCCCC3)c2)c2c1CCNC2 (stereo not shown) [Example 288, 1-(3-{3-[(2-Piperidin-1-ylethyl)sulfanyl]-4-(trifluoromethyl)phenyl}-4,5,6,7-tetrahydro-1H-pyrazolo[4,3-c]pyridin-1-yl)-3-pyrrolidin-1-ylpropan-2-ol] | > 20000 |
| CS(=O)(=O)N1CCc2c(c(-c3ccc(C(F)(F)F)c(SCCOc4ccccc4)c3)nn2CCCN2CCC(N3CCCC3=O)CC2)C1 [Example 137, 1-[1-(3-{5-Methanesulfonyl-3-[3-(2-phenoxy-ethylsulfanyl)-4-trifluoromethyl-phenyl]-4,5,6,7-tetrahydro-pyrazolo[4,3-c]pyridin-1-yl}-propyl)-piperidin-4-yl]-pyrrolidin-2-one] | 220 |
| CS(=O)(=O)N1CCc2c(c(-c3ccc(C(F)(F)F)c(SCCN4CCC(F)CC4)c3)nn2CC(O)CN2CCC(c3ccccn3)CC2)C1 (stereo not shown) [Example 189, 1-{3-[3-{[2-(4-Fluoropiperidin-1-yl)ethyl]sulfanyl}-4-(trifluoromethyl)phenyl]-5-(methylsulfonyl)-4,5,6,7-tetrahydro-1H-pyrazolo[4,3-c]pyridin-1-yl}-3-(4-pyridin-2-ylpiperidin-1-yl)propan-2-ol] | 10 |
| COC(=O)C(=O)N1CCc2c(c(-c3ccc(C(F)(F)F)c(SCCN4CCC(F)CC4)c3)nn2CC(O)CN2CCCCC2)C1 (stereo not shown) [Example 435, Methyl {3-[3-{[2-(4-fluoropiperidin-1-yl)ethyl]sulfanyl}-4-(trifluoromethyl)phenyl]-1-(2-hydroxy-3-piperidin-1-ylpropyl)-1,4,6,7-tetrahydro-5H-pyrazolo[4,3-c]pyridin-5-yl}(oxo)acetate] | 65 |

The remaining lines, values ahead:

| IC50 [nM] | SMILES |
| --- | --- |
| 360 | CC(C)(O)C1CCN(C[C@H](O)Cn2nc(-c3ccc(C(F)(F)F)c(SCCN4CC[C@H](F)C4)c3)c3c2CCN(S(C)(=O)=O)C3)CC1 [Example 615, (2S)-1-{3-[3-({2-[(3S)-3-Fluoropyrrolidin-1-yl]ethyl}sulfanyl)-4-(trifluoromethyl)phenyl]-5-(methylsulfonyl)-4,5,6,7-tetrahydro-1H-pyrazolo[4,3-c]pyridin-1-yl}-3-[4-(1-hydroxy-1-methylethyl)piperidin-1-yl]propan-2-ol] |
| 1240 | O=C(C1CCCNC1)N1CCc2c(c(-c3ccc(C(F)(F)F)c(SCCN4CCC(F)CC4)c3)nn2CC(O)CN2CCCCC2)C1 (stereo not shown) [Example 584, 1-{3-[3-{[2-(4-Fluoropiperidin-1-yl)ethyl]sulfanyl}-4-(trifluoromethyl)phenyl]-5-(piperidin-3-ylcarbonyl)-4,5,6,7-tetrahydro-1H-pyrazolo[4,3-c]pyridin-1-yl}-3-piperidin-1-ylpropan-2-ol] |
| 110 | CC(=O)N1CCN(CCSc2cc(-c3nn(CC(O)CN4CCN(c5ccccc5O)CC4)c4c3CN(S(C)(=O)=O)CC4)ccc2C(F)(F)F)CC1 (stereo not shown) [Example 859, 2-[4-(3-{3-[3-{[2-(4-Acetylpiperazin-1-yl)ethyl]sulfanyl}-4-(trifluoromethyl)phenyl]-5-(methylsulfonyl)-4,5,6,7-tetrahydro-1H-pyrazolo[4,3-c]pyridin-1-yl}-2-hydroxypropyl)piperazin-1-yl]phenol] |
| 30 | CS(=O)(=O)N1CCc2c(c(-c3ccc(C(F)(F)F)c(SCC(=O)N4CCOCC4)c3)nn2CC(O)CN2CCC(n3cn[nH]c3=O)CC2)C1 (stereo not shown) [Example 751, 4-(1-{2-Hydroxy-3-[5-(methylsulfonyl)-3-{3-[(2-morpholin-4-yl-2-oxoethyl)sulfanyl]-4-(trifluoromethyl)phenyl}-4,5,6,7-tetrahydro-1H-pyrazolo[4,3-c]pyridin-1-yl]propyl}piperidin-4-yl)-2,4-dihydro-3H-1,2,4-triazol-3-one] |
| 340 | CC(=O)N1CCc2c(c(-c3ccc(C(F)(F)F)c(SCC(=O)N4CCOCC4)c3)nn2CC(O)CN2CCC(N3CCCC3)CC2)C1 (stereo not shown) [Example 572, 1-(5-Acetyl-3-{3-[(2-morpholin-4-yl-2-oxoethyl)sulfanyl]-4-(trifluoromethyl)phenyl}-4,5,6,7-tetrahydro-1H-pyrazolo[4,3-c]pyridin-1-yl)-3-(4-pyrrolidin-1-ylpiperidin-1-yl)propan-2-ol] |
| 1180 | CN1CCN(C(=O)N2CCc3c(c(-c4ccc(C(F)(F)F)c(SCCN5CCC(F)CC5)c4)nn3C[C@@H](O)CN3CCCCC3)C2)CC1 [Example 633, (2S)-1-{3-[3-{[2-(4-Fluoropiperidin-1-yl)ethyl]sulfanyl}-4-(trifluoromethyl)phenyl]-5-[(4-methylpiperazin-1-yl)carbonyl]-4,5,6,7-tetrahydro-1H-pyrazolo[4,3-c]pyridin-1-yl}-3-piperidin-1-ylpropan-2-ol] |
| 50 | CS(=O)(=O)N1CCc2c(c(-c3ccc(C(F)(F)F)c(SCC(=O)N4CC[C@@H](O)C4)c3)nn2CC(O)CN2CCN(c3ccc(F)cc3)CC2)C1 (stereo partly drawn) [Example 789, (3R)-1-[({5-[1-{3-[4-(4-Fluorophenyl)piperazin-1-yl]-2-hydroxypropyl}-5-(methylsulfonyl)-4,5,6,7-tetrahydro-1H-pyrazolo[4,3-c]pyridin-3-yl]-2-(trifluoromethyl)phenyl}sulfanyl)acetyl]pyrrolidin-3-ol] |
| 190 | CS(=O)(=O)NC1CCN(CC(O)Cn2nc(-c3ccc(C(F)(F)F)c(SCCN4CCOC(CO)C4)c3)c3c2CCN(S(C)(=O)=O)C3)CC1 (stereo not shown) [Example 843, N-[1-(2-Hydroxy-3-{3-[3-({2-[2-(hydroxymethyl)morpholin-4-yl]ethyl}sulfanyl)-4-(trifluoromethyl)phenyl]-5-(methylsulfonyl)-4,5,6,7-tetrahydro-1H-pyrazolo[4,3-c]pyridin-1-yl}propyl)piperidin-4-yl]methanesulfonamide] |
| 650 | CC(C)(C)OC(=O)NC1(C(=O)N2CCc3c(c(-c4ccc(C(F)(F)F)c(SCCN5CCC(F)CC5)c4)nn3CC(O)CN3CCCCC3)C2)CC1 (stereo not shown) [Example 837, 1,1-Dimethylethyl [1-({3-[3-{[2-(4-fluoropiperidin-1-yl)ethyl]sulfanyl}-4-(trifluoromethyl)phenyl]-1-(2-hydroxy-3-piperidin-1-ylpropyl)-1,4,6,7-tetrahydro-5H-pyrazolo[4,3-c]pyridin-5-yl}carbonyl)cyclopropyl]carbamate] |
| 490 | CS(=O)(=O)N1CCc2c(c(-c3ccc(C(F)(F)F)c(SCCN4CCCCC4Cc4ccccc4)c3)nn2CCCN2CCC(N3CCCC3=O)CC2)C1 (stereo not shown) [Example 877, 1-[1-(3-{5-(Methylsulfonyl)-3-[3-({2-[2-(phenylmethyl)piperidin-1-yl]ethyl}sulfanyl)-4-(trifluoromethyl)phenyl]-4,5,6,7-tetrahydro-1H-pyrazolo[4,3-c]pyridin-1-yl}propyl)piperidin-4-yl]pyrrolidin-2-one] |
| 1000 | COc1cccc(N2CCN(CC(O)Cn3nc(-c4ccc(C(F)(F)F)c(SCCN5CCCCC5)c4)c4c3CCNC4)CC2)c1 (stereo not shown) [Example 451, 1-{4-[3-(Methyloxy)phenyl]piperazin-1-yl}-3-(3-{3-[(2-piperidin-1-ylethyl)sulfanyl]-4-(trifluoromethyl)phenyl}-4,5,6,7-tetrahydro-1H-pyrazolo[4,3-c]pyridin-1-yl)propan-2-ol] |
| 50 | CC1CCN(CCSc2cc(-c3nn(C[C@@H](O)CN4CCC(N5C[C@H](O)CC5=O)CC4)c4c3CN(S(C)(=O)=O)CC4)ccc2C(F)(F)F)CC1 [Example 809, (4R)-4-Hydroxy-1-{1-[(2S)-2-hydroxy-3-{3-[3-{[2-(4-methylpiperidin-1-yl)ethyl]sulfanyl}-4-(trifluoromethyl)phenyl]-5-(methylsulfonyl)-4,5,6,7-tetrahydro-1H-pyrazolo[4,3-c]pyridin-1-yl}propyl]piperidin-4-yl}pyrrolidin-2-one] |
